Patent US9587265
Substitutions are numbered along the chain they refer to. Names and notes keep the numbering of the source.

Protein sequences, listed by entry. Tags and fused reporters are not part of them.
diubiquitin substrates of TRABID (Lys29-, Lys33- and Lys63-linked diUb), P0CG48, UniProt P0CG48, whole entry, looked up: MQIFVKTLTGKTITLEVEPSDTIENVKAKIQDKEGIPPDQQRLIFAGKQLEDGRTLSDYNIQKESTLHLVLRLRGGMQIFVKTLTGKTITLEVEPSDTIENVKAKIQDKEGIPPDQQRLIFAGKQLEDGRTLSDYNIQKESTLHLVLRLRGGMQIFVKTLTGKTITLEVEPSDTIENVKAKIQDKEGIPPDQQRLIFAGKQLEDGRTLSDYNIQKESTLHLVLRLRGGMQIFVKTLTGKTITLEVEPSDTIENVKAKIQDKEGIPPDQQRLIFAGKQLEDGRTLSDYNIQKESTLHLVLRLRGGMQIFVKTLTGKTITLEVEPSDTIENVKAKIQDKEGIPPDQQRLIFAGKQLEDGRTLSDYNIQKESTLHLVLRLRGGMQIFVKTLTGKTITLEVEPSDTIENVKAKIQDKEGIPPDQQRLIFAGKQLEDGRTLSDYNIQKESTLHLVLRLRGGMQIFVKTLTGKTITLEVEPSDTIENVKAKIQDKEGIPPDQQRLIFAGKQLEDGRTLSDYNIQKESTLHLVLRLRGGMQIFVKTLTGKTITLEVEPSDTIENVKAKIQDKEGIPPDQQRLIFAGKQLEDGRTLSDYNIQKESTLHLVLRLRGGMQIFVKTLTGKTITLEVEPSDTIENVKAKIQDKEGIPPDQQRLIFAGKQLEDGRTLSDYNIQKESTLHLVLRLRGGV

B1: TRABID AnkOTU H317A (bacterially produced) (protein)
chain: LEVDFKKLKQIKNRMKKTDWLFLNACVGVVEGDLAAIEAYKSSGGDIARQLTADEVRLLNRPSAFDVGYTLVALAIRFQRQDMLAILLTEVSQQAAKCIPAMVCPELTEQIRREIAASLHQRKGDFACYFLTDLVTFTLPADIEDLPPTVQEKLFDEVLDRDVQKELEEESPIINWSLELATRLDSRLYALWNRTAGDCLLDSVLQATWGIYDKDSVLRKALHDSLHDCSHWFYTRWKDWESWYSQSFGLHFSLREEQWQEDWAFILSLASQPGASLEQTHIFVLAHILRRPIIVYGVKYYKSFRGETLGYTRFQGVYLPLLWEQSFCWKSPIALGYTRGHFSALVAMENDGYGNRGAGANLNTDDDVTITFLPLVDSERKLLHVHFLSAQELGNEEQQEKLLREWLDCCVTEGGVLVAMQKSSRRRNHPLVTQMVEKWLDRYRQIRPCTSLS
B2: TRABID AnkOTU, crystallized fragment including AnkUBD and OTU domain (protein)
chain: B1 chain with A73H
B3: TRABID AnkOTU I320D (bacterially produced) (protein)
chain: B1 chain with A73H, I76D
B4: TRABID AnkOTU L332E (bacterially produced) (protein)
chain: B1 chain with A73H, L88E
B5: full-length TRABID H317A (HEK293-expressed, N-terminal 3xFLAG-tag) (protein)
chain: MSERGIKWACEYCTYENWPSAIKCTMCRAQRPSGTIITEDPFKSGSSDVGRDWDPSSTEGGSSPLICPDSSARPRVKSSYSMENANKWSCHMCTYLNWPRAIRCTQCLSQRRTRSPTESPQSSGSGSRPVAFSVDPCEEYNDRNKLNTRTQHWTCSVCTYENWAKAKRCVVCDHPRPNNIEAIELAETEEASSIINEQDRARWRGSCSSGNSQRRSPPATKRDSEVKMDFQRIELAGAVGSKEELEVDFKKLKQIKNRMKKTDWLFLNACVGVVEGDLAAIEAYKSSGGDIARQLTADEVRLLNRPSAFDVGYTLVALAIRFQRQDMLAILLTEVSQQAAKCIPAMVCPELTEQIRREIAASLHQRKGDFACYFLTDLVTFTLPADIEDLPPTVQEKLFDEVLDRDVQKELEEESPIINWSLELATRLDSRLYALWNRTAGDCLLDSVLQATWGIYDKDSVLRKALHDSLHDCSHWFYTRWKDWESWYSQSFGLHFSLREEQWQEDWAFILSLASQPGASLEQTHIFVLAHILRRPIIVYGVKYYKSFRGETLGYTRFQGVYLPLLWEQSFCWKSPIALGYTRGHFSALVAMENDGYGNRGAGANLNTDDDVTITFLPLVDSERKLLHVHFLSAQELGNEEQQEKLLREWLDCCVTEGGVLVAMQKSSRRRNHPLVTQMVEKWLDRYRQIRPCTSLSDGEEDEDDEDE
B6: full-length TRABID I320D (HEK293-expressed, N-terminal 3xFLAG-tag) (protein)
chain: B5 chain with A317H, I320D
B7: full-length TRABID L332E (HEK293-expressed, N-terminal 3xFLAG-tag) (protein)
chain: B5 chain with A317H, L332E

target: diubiquitin substrates of TRABID (Lys29-, Lys33- and Lys63-linked diUb), P0CG48

Row | Protein | Trabid activity against diUb substrates (DUB assay) | DUB activity
1 | B1 | significantly reduced Trabid activity against diUb substrates | 
2 | B2 |  | displayed significantly higher DUB activity compared to the isolated OTU domain
3 | B3 | significantly reduced Trabid activity against diUb substrates | 
4 | B4 | significantly reduced Trabid activity against diUb substrates | 
5 | B5 | significantly reduced Trabid activity against diUb substrates | 
6 | B6 | significantly reduced Trabid activity against diUb substrates | 
7 | B7 | significantly reduced Trabid activity against diUb substrates | 
